In US10040791B2, “Isoxazole derivative as mutant isocitrate dehydrogenase 1 inhibitor” (Daiichi Sankyo Company, Limited, priority 2014, dated 2018):
Like-named read-outs stand apart in the source and are kept apart here.

By UniProt entry, the sequences of proteins in these tests, tags left out.
UniProt O75874, whole entry R132H: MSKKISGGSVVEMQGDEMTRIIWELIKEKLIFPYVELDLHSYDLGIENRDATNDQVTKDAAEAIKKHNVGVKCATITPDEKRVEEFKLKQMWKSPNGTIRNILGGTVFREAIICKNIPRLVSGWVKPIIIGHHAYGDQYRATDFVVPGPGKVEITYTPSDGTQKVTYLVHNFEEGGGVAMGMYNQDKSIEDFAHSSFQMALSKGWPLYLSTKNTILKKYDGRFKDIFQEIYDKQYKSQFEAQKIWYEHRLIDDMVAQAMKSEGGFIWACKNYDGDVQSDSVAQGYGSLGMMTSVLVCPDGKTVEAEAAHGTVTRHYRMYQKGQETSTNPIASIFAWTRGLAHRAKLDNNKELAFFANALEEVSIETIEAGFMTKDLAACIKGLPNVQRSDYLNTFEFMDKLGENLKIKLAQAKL

Tests used:
IDH1R132H = IDH1R132H (Homo sapiens (Human), UniProt O75874, R132H); experiment: Inhibitory activity against IDH1R132H enzyme (NADPH detection, WST-8); format: biochemical; settings: 12 nM, residual NADPH detected with WST-8, read-out: Test Example 1 IDH1 R132H IC50
[1] = system: IDH1R132H-expressing TF-1 cells (TF-1/IDH1R132H); experiment: Inhibitory activity of 2-HG production using IDH1R132H-expressing TF-1 cells; format: cell-based, human
TF-1/IDH1R132H cells = experiment: Inhibitory activity of TF-1/IDH1R132H cell growth (ATPlite); format: cell-based, human; settings: read-out: Test Example 4 IC50
[2] = Homo sapiens, 2-HG production, IDH1R132H-expressing TF-1 cells, read-out: Test Example 2 IC50

Compound | IC50 (IDH1R132H) | IC50 [1, 2] | IC50 (TF-1/IDH1R132H cells; Homo sapiens) | IC50 ([1]; 2-HG production, IDH1R132H-expressing TF-1 cells, read-out: Test Example 2 IC50) | IC50 (TF-1/IDH1R132H cells) | IC50 ([1]; Homo sapiens, TF-1, read-out: Test Example 2 IC50 (nM))
C=CC(=O)N1CCC(c2onc(-c3c(Cl)cc(Cl)cc3Cl)c2C(=O)n2ccc3c(/C=C/C(=O)O)cccc32)CC1 [Example 99] | 142 nM | 167 nM | 287 nM |  |  | 
COC1(c2onc(-c3c(Cl)cc(Cl)cc3Cl)c2C(=O)n2cc(C)c3c(/C=C/C(=O)O)cccc32)CCC1 [Example 79, (2E)-3-(1-{[5-(1-Methoxycyclobutyl)-3-(2,4,6-trichlorophenyl)-1,2-oxazol-4-yl]carbonyl}-3-methyl-1H-indol-4-yl)prop-2-enoic acid] | 21 nM | 26 nM | 26 nM |  |  | 
COC1(c2onc(-c3c(Cl)cc(Cl)cc3Cl)c2C(=O)n2ccc3c(/C=C/C(=O)O)cccc32)CC1 [Example 44, (2E)-3-(1-{[5-(1-Methoxycyclopropyl)-3-(2,4,6-trichlorophenyl)-1,2-oxazol-4-yl]carbonyl}-1H-indol-4-yl)prop-2-enoic acid] | 22 nM | 177 nM | 257 nM |  |  | 
CC(C)(C)c1onc(-c2c(Cl)cc(Cl)cc2Cl)c1C(=O)n1cc(F)c2c(/C=C/C(=O)O)cccc21 [Example 40, (2E)-3-(1-{[5-(tert-Butyl)-3-(2,4,6-trichlorophenyl)-1,2-oxazol-4-yl]carbonyl}-3-fluoro-1H-indol-4-yl)prop-2-enoic acid] | 21 nM | 39 nM | 62 nM |  |  | 
C=CC(=O)N1CC2(CC2)N(c2onc(-c3c(F)cccc3Cl)c2C(=O)n2ccc3c(/C=C/C(=O)O)cccc32)C[C@H]1CC [Example 160, (2E)-3-[1-({5-[(6R)7-Acryloyl-6-ethyl-4,7-diazaspiro[2.5]oct-4-yl]-3-(2-chloro-6-fluorophenyl)-1,2-oxazol-4-yl}carbonyl)-1H-indol-4-yl]prop-2-enoic acid] | 26 nM | > 400 nM | > 900 nM |  |  | 
CC(C)(C)c1onc(-c2c(Cl)cc(Cl)cc2Cl)c1C(=O)n1ccc2c(/C=C/C(=O)O)cccc21 [Example 22, (2E)-3-(1-{[5-(tert-Butyl)-3-(2,4,6-trichlorophenyl)-1,2-oxazol-4-yl]carbonyl}-1H-indol-4-yl)prop-2-enoic acid] | 31 nM | 110 nM | 159 nM |  |  | 
C=CC(=O)N1CCC(c2onc(-c3ccc(Cl)c(F)c3Cl)c2C(=O)n2cc3c4c(cccc42)/C(=C/C(=O)O)CC3)CC1 [Example 130, (2E)-[1-{[5-(1-Acryloylpiperidin-4-yl)-3-(2,4-dichloro-3-fluorophenyl)-1,2-oxazol-4-yl]carbonyl}-3,4-dihydrobenzo[cd]indol-5(1H)-ylidene]ethanoic acid] | 60 nM | 150 nM | > 900 nM |  |  | 
CC(C)(F)c1onc(-c2c(F)cc(Cl)cc2Cl)c1C(=O)n1cc2c3c(cccc31)/C(=C/C(=O)O)CC2 [Example 16, (2E)-[1-{[3-(2,4-Dichloro-6-fluorophenyl)-5-(2-fluoropropan-2-yl)-1,2-oxazol-4-yl]carbonyl}-3,4-dihydrobenzo[cd]indol-5(1H)-ylidene]ethanoic acid] | 15 nM | 73 nM | 143 nM |  |  | 
COCC1(c2onc(-c3c(Cl)cc(Cl)cc3Cl)c2C(=O)n2cc(C)c3c(/C=C/C(=O)O)cccc32)CCC1 [Example 80, (2E)-3-(1-{[5-[1-(Methoxymethyl)cyclobutyl]-3-(2,4,6-trichlorophenyl)-1,2-oxazol-4-yl]carbonyl}-3-methyl-1H-indol-4-yl)prop-2-enoic acid] | 49 nM | 147 nM | 144 nM |  |  | 
CC(C)(C)c1onc(-c2c(Cl)cc(Cl)cc2Cl)c1C(=O)n1ccc2c(/C=C/C(=O)O)ccc(F)c21 [Example 48] | 29 nM |  |  | 134 nM | 216 nM | 
C=Cc1ccc(-c2onc(-c3c(Cl)cc(Cl)cc3Cl)c2C(=O)n2ccc3c(/C=C/C(=O)O)cccc32)cn1 [Example 73, (2E)-3-(1-{[5-(6-Ethenylpyridin-3-yl)-3-(2,4,6-trichlorophenyl)-1,2-oxazol-4-yl]carbonyl}-1H-indol-4-yl)prop-2-enoic acid] |  |  | 15 nM |  |  | 14 nM
Cn1cc(C(=O)c2c(-c3c(Cl)cc(Cl)cc3Cl)noc2C(C)(C)C)c2cccc(/C=C/C(=O)O)c21 [Example 164] |  | 255 nM | 674 nM |  |  | 
C=CC(=O)N1CCC(c2onc(-c3c(C)cc(C)cc3C)c2C(=O)n2cc(C)c3c(/C=C/C(=O)O)cccc32)CC1 [Example 114] | 21 nM | 34 nM | 35 nM |  |  | 
C=CC(=O)N1CCC(c2onc(-c3cc(F)c(Cl)cc3Cl)c2C(=O)n2cc3c4c(cccc42)/C(=C/C(=O)O)CC3)CC1 [Example 128] | 38 nM | 40 nM | > 900 nM |  |  | 
Cc1cn(C(=O)c2c(-c3c(F)cc(Cl)cc3Cl)noc2C(C)(C)F)c2cccc(/C=C/C(=O)O)c12 [Example 47, (2E)-3-(1-{[3-(2,4-Dichloro-6-fluorophenyl)-5-(2-fluoropropan-2-yl)-1,2-oxazol-4-yl]carbonyl}-3-methyl-1H-indol-4-yl)prop-2-enoic acid] | 13 nM | 33 nM | 42 nM |  |  | 
CC(C)(F)c1onc(-c2c(Cl)cc(Cl)cc2Cl)c1C(=O)n1cc2c3c(c(F)ccc31)/C(=C/C(=O)O)CC2 [Example 67, (2E)-[6-Fluoro-1-{[5-(2-fluoropropan-2-yl)-3-(2,4,6-trichlorophenyl)-1,2-oxazol-4-yl]carbonyl}-3,4-dihydrobenzo[cd]indol-5(1H)-ylidene]ethanoic acid] | 17 nM | 68 nM | 250 nM |  |  | 
Cc1cn(C(=O)c2c(-c3c(Cl)cc(Cl)cc3Cl)noc2C2(N)CCC2)c2cccc(/C=C/C(=O)O)c12 [Example 90, (2E)-3-(1-{[5-(1-Aminocyclobutyl)-3-(2,4,6-trichlorophenyl)-1,2-oxazol-4-yl]carbonyl}-3-methyl-1H-indol-4-yl)prop-2-enoic acid] | 7 nM | 65 nM | 372 nM |  |  | 
Cc1cc(Cl)cc(Cl)c1-c1noc(C(C)(C)F)c1C(=O)n1cc(C)c2c(/C=C/C(=O)O)cccc21 [Example 59, (2E)-3-(1-{[3-(2,4-Dichloro-6-methylphenyl)-5-(2-fluoropropan-2-yl)-1,2-oxazol-4-yl]carbonyl}-3-methyl-1H-indol-4-yl)prop-2-enoic acid] | 15 nM | 52 nM | 66 nM |  |  | 
CC1(c2onc(-c3c(Cl)cc(Cl)cc3Cl)c2C(=O)n2ccc3c(/C=C/C(=O)O)cccc32)COC1 [Example 1, (2E)-3-(1-{[5-(3-Methyloxetan-3-yl)-3-(2,4,6-trichlorophenyl)-1,2-oxazol-4-yl]carbonyl}-1H-indol-4-yl)prop-2-enoic acid] | 10 nM | 33 nM | 79 nM |  |  | 
CC(C)(F)c1onc(-c2c(F)cc(Cl)cc2Cl)c1C(=O)n1ccc2c(/C=C/C(=O)O)cccc21 [Example 46, (2E)-3-(1-{[3-(2,4-Dichloro-6-fluorophenyl)-5-(2-fluoropropan-2-yl)-1,2-oxazol-4-yl]carbonyl}-1H-indol-4-yl)prop-2-enoic acid] | 28 nM | 294 nM | 657 nM |  |  | 
C=CC(=O)N1CCC(C)(c2onc(-c3c(Cl)cc(Cl)cc3Cl)c2C(=O)n2cc(C)c3c(/C=C/C(=O)O)cccc32)CC1 [Example 113] | 27 nM | 40 nM | 245 nM |  |  | 
C=CC(=O)N1CCC(c2onc(-c3ccc(Cl)cc3Cl)c2C(=O)n2cc(C)c3c(/C=C/C(=O)O)cccc32)CC1 [Example 106] | 64 nM | 143 nM | 192 nM |  |  | 
Cc1cn(C(=O)c2c(-c3c(Cl)cc(F)cc3Cl)noc2C(C)(C)F)c2cccc(/C=C/C(=O)O)c12 [Example 49, (2E)-3-(1-{[3-(2,6-Dichloro-4-fluorophenyl)-5-(2-fluoropropan-2-yl)-1,2-oxazol-4-yl]carbonyl}-3-methyl-1H-indol-4-yl)prop-2-enoic acid] | 9 nM | 89 nM | 51 nM |  |  | 
Cn1cc(C(=O)c2c(-c3c(Cl)cc(Cl)cc3Cl)noc2C2(C)CC2)c2cccc(/C=C/C(=O)O)c21 [Example 165] | 10 nM | 127 nM | 211 nM |  |  | 
CC1(c2onc(-c3c(Cl)cc(Cl)cc3Cl)c2C(=O)n2cc3c4c(cccc42)/C(=C/C(=O)O)CC3)COC1 [Example 8, (2E)-[1-{[5-(3-Methyloxetan-3-yl)-3-(2,4,6-trichlorophenyl)-1,2-oxazol-4-yl]carbonyl}-3,4-dihydrobenzo[cd]indol-5(1H)-ylidene]ethanoic acid] | 8 nM | 21 nM | 68 nM |  |  | 
C=CC(=O)N1CCN(c2onc(-c3c(Cl)cccc3Cl)c2C(=O)n2ccc3c(/C=C/C(=O)O)cccc32)[C@H](C)C1 [Example 141, (2E)-3-[1-({5-[(2R)-4-Acryloyl-2-methylpiperazin-1-yl]-3-(2,6-dichlorophenyl)-1,2-oxazol-4-yl}carbonyl)-1H-indol-4-yl]prop-2-enoic acid] | 160 nM | > 2000 nM | > 900 nM |  |  | 
Cc1cn(C(=O)c2c(-c3ccc(Cl)cc3Cl)noc2C2(C)COC2)c2cccc(/C=C/C(=O)O)c12 [Example 78, (2E)-3-(1-{[3-(2,4-Dichlorophenyl)-5-(3-methyloxetan-3-yl)-1,2-oxazol-4-yl]carbonyl}-3-methyl-1H-indol-4-yl)prop-2-enoic acid] |  | 204 nM | 518 nM |  |  | 
C=CC(=O)N1CC2(CC2)N(c2onc(-c3c(Cl)cccc3OC)c2C(=O)n2ccc3c(/C=C/C(=O)O)cccc32)C[C@H]1C [Example 158, (2E)-3-[1-({5-[(6R)7-Acryloyl-6-methyl-4,7-diazaspiro[2.5]oct-4-yl]-3-(2-chloro-6-methoxyphenyl)-1,2-oxazol-4-yl}carbonyl)-1H-indol-4-yl]prop-2-enoic acid] | 64 nM |  |  |  |  | 
